From ChEMBL document CHEMBL1126929, “Syntheses of 2,5- and 2,6-difluoronorepinephrine, 2,5-difluoroepinephrine, and 2,6-difluorophenylephrine: effect of disubstitution with fluorine on adrenergic activity” (J Med Chem, 1993) come the findings set out here.

The chains behind the UniProt entries cited, without tags or fusion partners. Where a name states a change or a piece, a line headed by the entry shows the natural chain unless it says otherwise.
UniProt P22086: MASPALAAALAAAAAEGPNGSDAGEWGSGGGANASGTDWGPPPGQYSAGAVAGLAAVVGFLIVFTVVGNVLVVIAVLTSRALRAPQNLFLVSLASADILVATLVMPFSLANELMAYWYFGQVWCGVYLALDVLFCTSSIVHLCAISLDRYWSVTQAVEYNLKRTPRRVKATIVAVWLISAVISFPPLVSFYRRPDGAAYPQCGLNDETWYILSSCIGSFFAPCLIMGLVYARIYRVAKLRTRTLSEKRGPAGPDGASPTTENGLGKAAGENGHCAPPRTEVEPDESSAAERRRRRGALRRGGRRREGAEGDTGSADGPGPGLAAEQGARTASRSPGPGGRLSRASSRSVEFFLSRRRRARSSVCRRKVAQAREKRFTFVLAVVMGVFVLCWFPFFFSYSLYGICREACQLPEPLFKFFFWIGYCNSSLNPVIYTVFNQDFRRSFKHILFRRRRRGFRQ
UniProt P19328: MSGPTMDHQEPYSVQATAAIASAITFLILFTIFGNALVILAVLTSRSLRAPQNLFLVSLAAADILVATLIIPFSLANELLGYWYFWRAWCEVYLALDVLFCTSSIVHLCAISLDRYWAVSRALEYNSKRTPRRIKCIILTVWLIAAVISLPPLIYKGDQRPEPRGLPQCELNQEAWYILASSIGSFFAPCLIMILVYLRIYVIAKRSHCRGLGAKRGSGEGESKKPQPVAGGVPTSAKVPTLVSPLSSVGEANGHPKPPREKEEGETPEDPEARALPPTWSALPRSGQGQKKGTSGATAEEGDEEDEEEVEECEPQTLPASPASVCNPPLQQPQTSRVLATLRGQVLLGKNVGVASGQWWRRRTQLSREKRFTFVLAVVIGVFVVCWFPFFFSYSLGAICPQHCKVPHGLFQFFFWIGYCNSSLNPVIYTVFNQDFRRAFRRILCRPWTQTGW
UniProt P22909: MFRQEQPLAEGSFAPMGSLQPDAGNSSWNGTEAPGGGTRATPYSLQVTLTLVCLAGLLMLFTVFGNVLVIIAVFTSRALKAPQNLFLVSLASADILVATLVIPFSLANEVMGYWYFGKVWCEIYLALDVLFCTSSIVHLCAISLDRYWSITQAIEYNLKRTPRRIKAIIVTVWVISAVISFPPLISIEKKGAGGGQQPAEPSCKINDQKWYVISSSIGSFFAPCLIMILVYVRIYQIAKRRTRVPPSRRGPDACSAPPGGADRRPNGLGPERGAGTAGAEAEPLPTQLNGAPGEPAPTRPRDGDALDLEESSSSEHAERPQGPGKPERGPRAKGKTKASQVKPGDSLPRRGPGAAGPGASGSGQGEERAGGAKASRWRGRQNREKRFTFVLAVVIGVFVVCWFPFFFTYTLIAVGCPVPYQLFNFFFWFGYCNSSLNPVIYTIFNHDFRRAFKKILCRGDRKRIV

This assay addresses Adrenergic receptor alpha-2 (Rattus norvegicus, UniProt P22086+P19328+P22909). In words: Displacement of [3H]clonidine from adrenergic alpha 2 receptor of rat cerebral cortical membranes. The class given is cell membranes, Membrane. A general note: Loss of bound radioactivity is the signal in a displacement assay; it reports binding, not function.

For the molecule `CNC[C@H](O)c1ccc(O)c(O)c1` [EPINEPHRINE], the inhibition constant Ki came out at 38 nM.

As a reminder, the Ki is the equilibrium dissociation constant of an inhibitor or competing ligand from its target.
